# Values quoted from earlier work as cited in US9969773B2, “Polymers, pharmaceutical compositions and methods of synthesizing the same” (NEW YORK UNIVERSITY, priority 2014, dated 2018).
# Settings: relative to the original (unPEGylated) protein
substance,measurement,value
"PEGylated Interferon α-2a: PEGylated Interferon α-2a, a hepatitis C therapeutic, can consist of various positional isomers",activity retained in comparison to the original protein,7%
